The species entered for experiment [1] is Homo sapiens. In words: Selectivity ratio of Ki for delta opioid receptor (unknown origin) to Ki for kappa opioid receptor (unknown origin).
Experiment [2] has as its target Kappa-type opioid receptor (Homo sapiens, UniProt P41145). The experiment can be described thus: Displacement of [3H]U69593 from kappa opioid receptor (unknown origin). In a few lines: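 Competition radioligand binding. Ki was determined against [3H]DAMGO for MOR, [3H]DADLE for DOR and […] for KOR. Values are the mean of three experiments, each run in duplicate.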
On the technique in general: In a radioligand displacement assay an active substance lowers the binding of a labelled ligand.

Amino acid sequences for entries named in this document (tags omitted). A change or cut given only in a name is not applied to a line headed by its entry.
UniProt P41145: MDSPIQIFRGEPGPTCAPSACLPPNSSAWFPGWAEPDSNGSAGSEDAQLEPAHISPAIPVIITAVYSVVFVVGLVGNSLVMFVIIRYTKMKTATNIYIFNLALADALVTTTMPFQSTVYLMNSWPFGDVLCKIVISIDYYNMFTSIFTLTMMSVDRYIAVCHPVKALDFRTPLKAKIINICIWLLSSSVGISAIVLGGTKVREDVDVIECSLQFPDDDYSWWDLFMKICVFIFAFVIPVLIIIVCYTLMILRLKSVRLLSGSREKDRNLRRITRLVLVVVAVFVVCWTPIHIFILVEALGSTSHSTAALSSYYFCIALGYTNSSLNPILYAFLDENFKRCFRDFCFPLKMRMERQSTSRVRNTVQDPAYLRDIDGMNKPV

For the compound `COC(=O)[C@@H]1C[C@H](OC(=O)CCC(=O)O)C(=O)[C@H]2[C@@]1(C)CC[C@H]1C(=O)O[C@H](c3ccoc3)C[C@]21C`, the Ratio Ki in experiment [1] was more than 2.
As usually defined, the Ki is a measure of affinity in units of concentration, obtained from inhibition or displacement. A lower Ki goes with higher affinity. The compound `COC(=O)[C@@H]1C[C@H](O)C(=O)[C@H]2[C@@]1(C)CC[C@H]1C(=O)O[C@H](c3ccoc3)C[C@]21C` [SALVINORIN B] registered an inhibition constant (Ki) in experiment [2] of more than 10 µM.

For the origin of these results see ChEMBL document CHEMBL2380279 (Bioorg Med Chem Lett, 2013).
